One data set addresses Bovine type 1 trypsin (Bos taurus, UniProt P00760). The experiment in a line: Trypsin-catalyzed hydrolysis of chromogenic substrate Spectrozyme TRY (in vitro enzyme assay). It counts as biochemical. To be noted: read-out: Trp IC50, 3.2 U/ml trypsin, 0.1-0.3 mM Spectrozyme TRY.
A further data set addresses human alpha-thrombin (Homo sapiens, UniProt P00734). The experiment in a line: Thrombin-catalyzed hydrolysis of chromogenic substrate Spectozyme TH (in vitro enzyme assay). It counts as biochemical. To be noted: read-out: Thr IC50, 1 nM thrombin, 50 μM Spectozyme TH, 37° C., pH 7.4.
Data set [1] in a line: Ex vivo i.v. assay for duration of action: time to half plasma elimination from thrombin inhibition in rat plasma. To be noted: male Long Evans rats, i.v. via femoral vein, from slope of Vo vs. time; tested form: TFA.

Sequences of proteins named here, by UniProt entry; tags and fusion partners are left off. Residues count along the entry.
UniProt P00760, 24-246 limits assumed: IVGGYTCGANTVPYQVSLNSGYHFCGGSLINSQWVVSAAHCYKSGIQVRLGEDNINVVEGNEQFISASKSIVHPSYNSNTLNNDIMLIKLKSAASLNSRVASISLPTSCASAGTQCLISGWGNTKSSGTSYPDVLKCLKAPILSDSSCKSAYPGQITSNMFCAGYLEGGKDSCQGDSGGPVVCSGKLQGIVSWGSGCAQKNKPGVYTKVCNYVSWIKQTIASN

Read-outs that look alike come from different tables or passages of the source.

With `CN(C)c1cccc2c(S(=O)(=O)N[C@@H](CCCNC(=N)N)C(=O)N3CCCCC3C(=O)c3nccs3)cccc12` (stereo partly drawn), the IC50 is 50 µM at Bovine type 1 trypsin (tested form: TFA) and 26 µM on human alpha-thrombin (tested form: TFA).
Take `N=C(N)NCCC[C@H](NC=O)C(=O)c1nc2ccccc2s1`: the IC50 at Bovine type 1 trypsin (tested form: TFA) worked out at 4.38 µM.
Take `CCOC(=O)c1csc(C(=O)[C@H](CCCNC(=N)N)NS(=O)(=O)c2cccc3c(N(C)C)cccc23)n1`: the values for the IC50 at Bovine type 1 trypsin and on human alpha-thrombin were 6.34 µM and 42 µM, respectively.
For `CN[C@H](Cc1ccccc1)C(=O)N1CCC[C@H]1C(=O)N[C@@H](CCCNC(=N)N)C(=O)c1nc2ccccc2n1C`, the IC50 at Bovine type 1 trypsin (tested form: oxalate) was determined as 1.2 µM; at human alpha-thrombin (tested form: oxalate) it was 0.111 µM.
`CN[C@H](Cc1ccccc1)C(=O)N1CCC[C@H]1C(=O)N[C@@H](CCCNC(=N)N)C(=O)c1nc2ccccc2o1`: the IC50 on Bovine type 1 trypsin (tested form: TFA) is 0.28 µM.
Take `CCOC(=O)c1csc(C(=O)[C@@H](CCCNC(=N)N)NC(=O)CNS(=O)(=O)c2ccc3ccccc3c2)n1`: the figures for the IC50 on Bovine type 1 trypsin (tested form: TFA) and at human alpha-thrombin (tested form: TFA) were 0.012 µM and 4 µM, respectively.
The like results for `CN(C)c1cccc2c(S(=O)(=O)N[C@@H](CCCNC(=N)N)C(=O)N3CCCCC3CCC(=O)c3nccs3)cccc12` (single isomer, unassigned) were, in that order, 19 µM and 3.5 µM.
The like results for `CN[C@H](Cc1ccccc1)C(=O)N1CCC[C@H]1C(=O)N[C@@H](CCCOC)C(=O)c1nc2ccccc2s1` were, in that order, 7.44 µM and 45.5 µM.
For the molecule `CN[C@H](Cc1ccccc1)C(=O)N[C@H](C(=O)N[C@@H](CCCNC(=N)N)C(=O)c1nc2ccccc2s1)C(C)C`, the results for the IC50 at Bovine type 1 trypsin (tested form: TFA) and on human alpha-thrombin (tested form: TFA) were 0.002 µM and 0.2 µM, respectively.
The like results for `CN[C@H](Cc1ccccc1)C(=O)N1CCC[C@H]1C(=O)N[C@@H](CCCNC(=N)N)C(=O)c1cc2ccccc2s1` were, in that order, 6.88 µM and 12.9 µM.
On the same counts, the results for `CN(C)c1cccc2c(S(=O)(=O)N[C@@H](CCCNC(=N)N)C(=O)N3CCCCC3CCCC(=O)c3nccs3)cccc12` (stereo partly drawn) are 7.74 µM and 40.1 µM.
Turning to `N=C(N)NCCCC(NC(=O)[C@@H]1CCCN1C(=O)CC(c1ccccc1)c1ccccc1)C(=O)c1nc2ccccc2s1` (stereo partly drawn), the “t1/2 (time to half plasma elimination)” value in data set [1] stood at 6 min.

By IC50 is commonly meant the concentration that inhibits the measured activity by half.

The values are drawn from patent publication US5523308A, “Peptidyl heterocycles useful in the treatment of thrombin related disorders” (priority 1995, dated 1996).
